Data on seven substances can be found in US20210198354A1.

Values joined by “and” are separate entries in the source; they are usually repeats but may differ in a detail not shown here. Equal values may be shown once.

For one test, the target named is IL-4 (UniProt P05112). In words: indirect ELISA, cytokine coated at 1000 ng/ml, duplicate wells. For orientation: An ELISA detects its analyte on a solid surface through an enzyme-linked reagent.
For the next test, the target named is rIFN γ (UniProt P01579). Described as above.
A further test deals with IL-1β (UniProt P01584). The test is described as above.
In another test the target is IL-8 (UniProt P10145). The description is as above.
In a further test the target is rhTNFβ (human) (UniProt P01374). Described as above.
The target in another test is IL-2 (UniProt P60568). Described as above.
Test [1] deals with Tumor Necrosis Factor-alpha (TNF-α) (human) (UniProt P01375). The test is described as above.
Test [2] has the same target. As to the kind of experiment: indirect ELISA on coated TNF-α, screening of combinations, duplicate wells.
The target is the same in test [3]. In words: indirect ELISA, TNF-α coated at 300 ng/ml.
Another test deals with IL-1α (UniProt P01583). In words: indirect ELISA, cytokine coated at 1000 ng/ml, duplicate wells.

For “L0h4 (antibody; other documents disagree on this pair)”, the OD was 0.055 OD and 0.049 OD in the test with IL-4; 0.062 OD and 0.068 OD in the test with rIFN γ; 0.059 OD and 0.068 OD with IL-1β; 0.067 OD and 0.06 OD in the test with IL-8; 0.064 OD and 0.058 OD with rhTNFβ (human); 0.074 OD and 0.069 OD with IL-2. Besides, the OD in test [1] was 3.34 OD and 3.24 OD; in test [2], 3.34 OD and 3.13 OD. Further, the EC50 – broadly, the concentration needed to bring the measured effect to its halfway point – in test [3] was found to be 0.37 nM.
“L0h5 (antibody; other documents disagree on this pair)”: the OD in test [2] is 1.03 OD and 0.873 OD.
As for “Adalimumab (antibody; other documents disagree on this pair)”, the OD with IL-4 was 0.05 OD; in the test with rIFN γ, 0.082 OD and 0.078 OD; with IL-1β, 0.067 OD and 0.058 OD; with IL-8, 0.063 OD and 0.057 OD; with rhTNFβ (human), 0.097 OD and 0.089 OD; in the test with IL-2 it was 0.053 OD and 0.059 OD.
On to “L0h3 (antibody; other documents disagree on this pair)”, for which, in [2], the OD is 0.68 OD and 0.768 OD.
The same measure, in the same setting: the figure for “L0h1 (antibody; other documents disagree on this pair)” is 2.16 OD and 2.18 OD.
As to Adalimumab (antibody), the OD with IL-1α was 0.059 OD and 0.065 OD.
The same measure, in the same setting: for L0h4 (antibody) the value was 0.08 OD and 0.072 OD.
